Values quoted from earlier work as cited in US20160271257A1, “Low Molecular Weight Immune-Modulators As Adjuvants for Specific Immunotherapy” (PLS-DESIGN GMBH, priority 2013, published 2016).

Question: What does the source list for VLGGG CALLRC IPALD SLTPA NED [p277]?
Answer: mice developing diabetes within 30 days (i.p. 50 μg in IFA, two weeks later MT-hsp65 (50 μg) in IFA): None of 10; mice developing blood glucose higher than 130 mg/dl within 3 weeks (single i.p. 50 μg in IFA): None of 7
